Results from patent US20030114375A1, “Method for treating cystic fibrosis” (The Government of the USA, Dept of Health and Human …, priority 1994, published 2003).

Sequences of proteins named here, by UniProt entry; tags and fusion partners are left off.
UniProt P25099, whole entry: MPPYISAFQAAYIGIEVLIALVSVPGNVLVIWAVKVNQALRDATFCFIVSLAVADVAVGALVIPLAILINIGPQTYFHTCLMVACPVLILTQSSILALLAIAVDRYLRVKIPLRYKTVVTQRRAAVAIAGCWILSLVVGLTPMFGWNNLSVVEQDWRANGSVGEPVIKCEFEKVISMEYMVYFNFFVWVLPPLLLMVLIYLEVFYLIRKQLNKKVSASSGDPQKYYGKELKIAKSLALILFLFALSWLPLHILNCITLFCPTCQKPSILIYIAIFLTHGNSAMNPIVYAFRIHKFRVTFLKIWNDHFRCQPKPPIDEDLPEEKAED
UniProt P30543, whole entry: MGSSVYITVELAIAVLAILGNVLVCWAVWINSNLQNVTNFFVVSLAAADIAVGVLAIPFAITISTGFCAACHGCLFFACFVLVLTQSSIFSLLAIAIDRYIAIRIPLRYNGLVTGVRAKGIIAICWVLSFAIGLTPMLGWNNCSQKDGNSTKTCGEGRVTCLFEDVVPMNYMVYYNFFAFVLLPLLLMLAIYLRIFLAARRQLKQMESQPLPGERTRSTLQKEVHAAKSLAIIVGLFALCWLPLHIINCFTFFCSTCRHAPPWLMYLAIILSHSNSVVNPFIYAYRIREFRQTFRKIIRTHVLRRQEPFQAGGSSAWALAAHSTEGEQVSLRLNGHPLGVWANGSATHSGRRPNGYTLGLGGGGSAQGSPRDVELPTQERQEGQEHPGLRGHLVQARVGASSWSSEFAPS

What was measured:
[1] = target: A1-adenosine receptor (Rattus norvegicus, UniProt P25099); assay: Inhibition of [3H]N6-phenylisopropyladenosine binding to A1 receptors; settings: read-out: Ki, μM(A1); rat cerebral cortex membranes, 1 nM [3H]PIA
[2] = target: A2a-adenosine receptor (Rattus norvegicus, UniProt P30543); assay: Inhibition of [3H]CGS 21680 binding to A2a receptors; settings: read-out: Ki, μM(A2); rat striatal membranes, 5 nM [3H]CGS 21680
[3] = system: CFPAC cells; assay: [36Cl]- efflux from CFPAC cells

## Cn1c(=O)c2[nH]c(C3CCCCC3)nc2n(C)c1=O
[1]
  Ki: 0.03 µM
[2]
  Ki: 1.04 µM
[3]
  Chloride efflux stimulation (summary words): stimulate chloride efflux at μM or lesser concentrations
  Conc. max. (nM): concentration at maximum impact upon chloride efflux: 3 nM
  thresh (nM): minimum concentration required to detect an effect upon chloride efflux: 0.1 nM
